# In patent US6391545B1 (priority 1992, dated 2002):
# The chains behind the UniProt entries cited, without tags or fusion partners. Where a name states a change or a piece, a line headed by the entry shows the natural chain unless it says otherwise.
# UniProt P27245: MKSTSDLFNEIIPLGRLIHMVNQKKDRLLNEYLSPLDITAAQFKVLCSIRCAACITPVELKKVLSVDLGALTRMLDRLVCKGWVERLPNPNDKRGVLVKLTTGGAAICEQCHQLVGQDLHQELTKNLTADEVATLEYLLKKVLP
# Molecular target: MarR (i.e., MBP-MarR144) to marO (Escherichia coli, UniProt P27245)
# Type: binding
row,SMILES,reversal of the binding of MarR (MBP-MarR144) to marO
1,O=C(O)c1ccccc1O [salicylate],caused reversal of the binding
2,"O=C(N[C@H](CO)[C@H](O)c1ccc([N+](=O)[O-])cc1)C(Cl)Cl [clm, chloramphenicol]",caused reversal of the binding
3,CC1(C)S[C@@H]2[C@H](NC(=O)[C@H](N)c3ccccc3)C(=O)N2[C@H]1C(=O)O [ampicillin],caused reversal of the binding
